Laboratory results reported in PMC2897767, “Two Distinct Mechanisms for Actin Capping Protein Regulation—Steric and Allosteric Inhibition” (PLoS Biology, 2010).
“And” between values parts separate entries of the source, which are not always exact repeats. Equal values may be shown once. Read-outs that look alike come from different tables or passages of the source. Each block holds one substance with its values, some of them ahead of it.

Key:
[1] = target: actin filament barbed end (Oryctolagus cuniculus) (UniProt P68135); settings: cited from earlier work
[2] = target: actin filament barbed end (Oryctolagus cuniculus) (UniProt P68135); settings: cited from earlier work; remark: listed apart in the source
V-1 E78R (human) = V-1 E78R (human) (UniProt P58546); test: SPR; GST-fusion protein (GST-V-1, GST-CA or GST-CD) immobilised on a CM5 chip via anti-GST antibodies (up to 200 RU), CP perfused at 20 µl/min; 20°C; 50 mM KCl, 1 mM MgCl2, 0.005% Tween-20, 10 mM imidazole pH 7.0; 1:1 fit, KD from the kinetic rate constants (steady state for several fast-dissociating mutants)
V-1 D44R (human) = V-1 D44R (human) (UniProt P58546); test: as above

Substance: actin capping protein (CP) (from UniProt P13127)
Kd [1]: 1 nM and 0.18 nM

Substance: actin capping protein (CP) (from UniProt P47753)
Kd [2]: 38 nM

fold reduction of the affinity against the wild type proteins (V-1 E78R (human)): > 25 fold
fold reduction of the affinity against the wild type proteins (V-1 D44R (human)): > 25 fold
Substance: actin capping protein (CP), chicken α1/β1, CP_full (from UniProt P13127 1-286; P14315 1-277) (complex)
